The entries are a selection whose mix differs from that of the whole data set. Calls of active or inactive are those of the source. Calls follow the shape of the dose curve; as a rule, active = well fitted inhibition curve with a large enough effect in the polarisation, with a control signal flat; inconclusive = small, poorly fitted or top-dose-only effect, or effect the other way, or a change in a side signal; inactive = no such curve, though single readings can be large or run the other way; the % refers to the polarisation.
biological target: Transcriptional regulator ERG (Homo sapiens) (UniProt P11308); assay: qHTS for Small Molecule Inhibitors of the ERG Ets/DNA interaction; conditions: fluorescence polarization, His-ERG Ets domain / labelled DNA; at 76.9 µM (top of the series); also: % of control where 0% means no effect
Text: The Ets family of proteins is a family of ~30 conserved transcription factors defined by the presence of an ~85 amino acid domain referred to as the Ets domain, which mediates sequence-specific DNA binding to a core DNA element GGAA/T.The Ets family member ERG has been linked to several neoplasms. […] More extensive studies of the effects of over-expression of ERG in prostate cells have recently been carried out and have shown that over-expression of ERG results in increased invasion. […] We will carry out a high throughout screen to identify inhibitors of the interaction between ERG and DNA using a fluorescence polarization (FP) assay with a His-tagged ERG Ets domain and fluorescently-labeled DNA probes to develop small molecule inhibitors of this interaction as probes to test this hypothesis and lay the groundwork for the development of targeted therapies against ERG. NIH Molecular Libraries Probe Production Network [MLPCN] NIH Chemical Genomics Center [NCGC] Grant: NS066464 PI Name: John Bushweller, University of Virgina
1.5 ul of protein solution (1 uM ERG domain in 300mM KCl, 50mM Tris-HCl, 1mM EDTA, 1mM DTT, pH 7.5); 20 nl Control plate and compound library plate; 1.5 ul mixture of 5 nM Fluorescein-DNA and 100nM Texas-615-DNA solution in same buffer as above solution; measure fluorescence polarization sequentially for fluorescein (Excitation = 480 nm, Emission = 535s, 535p nm) and Texas red (Excitation = 555 nm, Emission = 632s, 632p nm).

Chains of the proteins cited; added tags and fusions are not shown.
UniProt P11308, whole entry: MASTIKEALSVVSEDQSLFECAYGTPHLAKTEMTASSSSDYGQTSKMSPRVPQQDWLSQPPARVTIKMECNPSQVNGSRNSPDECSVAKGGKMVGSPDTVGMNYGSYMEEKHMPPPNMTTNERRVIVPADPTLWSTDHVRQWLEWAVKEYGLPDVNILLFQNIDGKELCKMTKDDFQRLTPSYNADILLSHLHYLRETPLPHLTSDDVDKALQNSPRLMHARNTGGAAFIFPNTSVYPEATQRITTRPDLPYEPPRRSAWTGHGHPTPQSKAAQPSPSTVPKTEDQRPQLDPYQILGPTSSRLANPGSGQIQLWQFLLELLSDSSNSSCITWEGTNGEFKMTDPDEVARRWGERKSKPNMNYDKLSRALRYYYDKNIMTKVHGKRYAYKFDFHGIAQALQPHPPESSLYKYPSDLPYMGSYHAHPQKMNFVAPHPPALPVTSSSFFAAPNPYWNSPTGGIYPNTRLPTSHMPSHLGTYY

| SMILES | FP activity, negative = inhibition |
| --- | --- |
| CCOC(=O)c1ccc(NP(C)(=O)Oc2ccc(OC)cc2)cc1 (stereo not drawn) | inactive: -1.72% |
| O=[N+]([O-])c1cc([N+](=O)[O-])c(O)c([N+](=O)[O-])c1.c1ccc(Oc2ccncc2)cc1 | inactive: 15.6% |
| CCOP(C)(=S)SCC(=O)NC(C)C(=O)O (stereo not drawn) | inactive: -5.92% |
| Cc1cccc(C)c1OP(C)(=O)Nc1ccc(SC(F)(F)F)cc1 (stereo not drawn) | inactive: 9.22% |
| CP(=O)(Nc1ccc(SC(F)(F)F)cc1)Oc1ccc(Cl)cc1 (stereo not drawn) | inactive: -4.6% |
| CP(=O)(Oc1ccccc1)OC(c1ccccc1)C(F)(F)F (stereo not drawn) | inactive: -4.53% |
| CCc1ccc(OP(C)(=O)N2CCN(c3ccc([N+](=O)[O-])cc3)CC2)cc1 (stereo not drawn) | inactive: -4.35% |
| Cc1cc(C)cc(OP(C)(=O)Nc2ccc(SC(F)(F)F)cc2)c1 (stereo not drawn) | inactive: 2.46% |
| CP(=S)(Nn1cnnc1)Oc1ccccc1 (stereo not drawn) | inactive: 1.51% |
| CP(=O)(Nc1ccccc1Br)Oc1ccccc1 (stereo not drawn) | inactive: -29.3% |
| COc1ccccc1OP(C)(=O)Nc1ccccc1 (stereo not drawn) | inactive: 2.23% |
| COc1ccccc1OP(C)(=O)Nc1ccc(C)cc1 (stereo not drawn) | inactive: -3.98% |
| Cc1ccc(NP(C)(=O)Oc2ccccc2)c(C)c1 (stereo not drawn) | inactive: -8.84% |
| CCOC(=O)c1ccc(NP(C)(=O)Oc2ccccc2)cc1 (stereo not drawn) | inactive: -6.43% |
| Cc1cc(C)cc(OP(C)(N)=O)c1 (stereo not drawn) | inactive: -0.31% |
| COc1ccccc1OP(C)(=O)Nc1cc(Cl)ccc1C (stereo not drawn) | inactive: 11.1% |
| COc1ccc(OP(C)(=O)Nc2cccc(F)c2)cc1 (stereo not drawn) | inactive: -4% |
| O=[N+]([O-])c1cc([N+](=O)[O-])c(Nc2cccnc2)c([N+](=O)[O-])c1 | inactive: 14.5% |
| O=[N+]([O-])c1ccc2c(c1)C=Nc1ccccc1O2 | inactive: 13.7% |
| CC(C)(C)c1ccc(OP(C)(=O)Nc2ccc(SC(F)(F)F)cc2)cc1 (stereo not drawn) | inactive: -22.1% |
| Cc1cccc(C)c1OP(C)(N)=O (stereo not drawn) | inactive: 10.1% |
| CCN(CC)CCCOC(=O)C(O)(c1ccccc1)c1ccccc1 | inactive: -0.185% |
| Cc1ccc(C)c(NP(C)(=O)Oc2ccccc2)c1 (stereo not drawn) | inactive: -8.3% |
| CP(=O)(Nc1cccc(Br)c1)Oc1ccccc1 (stereo not drawn) | inactive: 1.33% |
| COc1ccccc1OP(C)(=O)Nc1cccc(Br)c1 (stereo not drawn) | inactive: -0.512% |
| Cc1cc(C)cc(OP(C)(=O)Nc2ccc(C)cc2C)c1 (stereo not drawn) | inactive: 5.49% |
| CC1=NCCc2c1[nH]c1ccccc21.O=[N+]([O-])c1cc([N+](=O)[O-])c(O)c([N+](=O)[O-])c1 | inactive: 5.12% |
| COc1ccccc1OP(C)(=O)Nc1c(C)cccc1C (stereo not drawn) | inactive: -1.77% |

— PubChem BioAssay AID624246 (National Center for Advancing Translational Sciences (NCATS), 2012)
